The data set deals with human recombinant CYP2D6 (Homo sapiens, UniProt P10635). The experiment in a line: Vandetanib oxidation by human recombinant CYP2D6 (Supersomes). As to conditions: CYP2D6, oxidation to N-desmethylvandetanib.

The chains behind the UniProt entries cited, without tags or fusion partners.
UniProt P10635, whole entry: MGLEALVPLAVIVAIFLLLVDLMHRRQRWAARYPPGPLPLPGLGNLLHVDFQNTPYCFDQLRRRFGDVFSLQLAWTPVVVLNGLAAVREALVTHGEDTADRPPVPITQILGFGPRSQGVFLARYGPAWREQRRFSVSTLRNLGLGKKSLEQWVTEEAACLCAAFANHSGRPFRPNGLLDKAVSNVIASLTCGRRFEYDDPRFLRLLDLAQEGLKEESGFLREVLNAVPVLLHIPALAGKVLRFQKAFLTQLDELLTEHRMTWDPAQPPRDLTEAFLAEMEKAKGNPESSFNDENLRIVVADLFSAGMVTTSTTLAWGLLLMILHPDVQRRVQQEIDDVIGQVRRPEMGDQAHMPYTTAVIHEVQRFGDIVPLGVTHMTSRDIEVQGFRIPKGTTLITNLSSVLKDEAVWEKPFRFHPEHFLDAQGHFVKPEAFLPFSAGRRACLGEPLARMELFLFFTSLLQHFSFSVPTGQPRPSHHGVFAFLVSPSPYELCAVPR

In the case of `COc1cc2c(Nc3ccc(Br)cc3F)ncnc2cc1OCC1CCN(C)CC1` [vandetanib, N-(4-bromo-2-fluorophenyl)-6-methoxy-7-[(1-methylpiperidin-4-yl)-methoxy]-quinazolin-4-amine, reference compound], the “K0.5, substrate concentration corresponding to half-maximal velocity” value was found to be 84.36 ± 18.14 µM.
